Legend:
[1] = biological target: Metabotropic glutamate receptor 5 (Rattus norvegicus, UniProt P31424); assay: Antagonist activity at rat mGluR5 expressed in HEK293A cells assessed as glutamate-induced calcium flux preincubated for 140 sec before glutamate challenge by calcium fluorescence assay; type: functional, cell-based, HEK293-A
Outline: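 Stable HEK 293A line plated at 20K cells/well and grown overnight at 37 °C, 6% CO2. Loaded with 2 µM Fluo-4 AM in HBSS/20 mM HEPES/2.5 mM probenecid at 37 °C, then buffer at room temperature. Ten-point 1:3 serial dilutions were added at t = 3 s, followed by EC80 glutamate for 60 s. Ca2+ fluorescence read kinetically at 1 Hz. Four-point logistic fit, multi-day averages.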

Sequences of proteins named here, by UniProt entry; tags and fusion partners are left off.
UniProt P31424, whole entry: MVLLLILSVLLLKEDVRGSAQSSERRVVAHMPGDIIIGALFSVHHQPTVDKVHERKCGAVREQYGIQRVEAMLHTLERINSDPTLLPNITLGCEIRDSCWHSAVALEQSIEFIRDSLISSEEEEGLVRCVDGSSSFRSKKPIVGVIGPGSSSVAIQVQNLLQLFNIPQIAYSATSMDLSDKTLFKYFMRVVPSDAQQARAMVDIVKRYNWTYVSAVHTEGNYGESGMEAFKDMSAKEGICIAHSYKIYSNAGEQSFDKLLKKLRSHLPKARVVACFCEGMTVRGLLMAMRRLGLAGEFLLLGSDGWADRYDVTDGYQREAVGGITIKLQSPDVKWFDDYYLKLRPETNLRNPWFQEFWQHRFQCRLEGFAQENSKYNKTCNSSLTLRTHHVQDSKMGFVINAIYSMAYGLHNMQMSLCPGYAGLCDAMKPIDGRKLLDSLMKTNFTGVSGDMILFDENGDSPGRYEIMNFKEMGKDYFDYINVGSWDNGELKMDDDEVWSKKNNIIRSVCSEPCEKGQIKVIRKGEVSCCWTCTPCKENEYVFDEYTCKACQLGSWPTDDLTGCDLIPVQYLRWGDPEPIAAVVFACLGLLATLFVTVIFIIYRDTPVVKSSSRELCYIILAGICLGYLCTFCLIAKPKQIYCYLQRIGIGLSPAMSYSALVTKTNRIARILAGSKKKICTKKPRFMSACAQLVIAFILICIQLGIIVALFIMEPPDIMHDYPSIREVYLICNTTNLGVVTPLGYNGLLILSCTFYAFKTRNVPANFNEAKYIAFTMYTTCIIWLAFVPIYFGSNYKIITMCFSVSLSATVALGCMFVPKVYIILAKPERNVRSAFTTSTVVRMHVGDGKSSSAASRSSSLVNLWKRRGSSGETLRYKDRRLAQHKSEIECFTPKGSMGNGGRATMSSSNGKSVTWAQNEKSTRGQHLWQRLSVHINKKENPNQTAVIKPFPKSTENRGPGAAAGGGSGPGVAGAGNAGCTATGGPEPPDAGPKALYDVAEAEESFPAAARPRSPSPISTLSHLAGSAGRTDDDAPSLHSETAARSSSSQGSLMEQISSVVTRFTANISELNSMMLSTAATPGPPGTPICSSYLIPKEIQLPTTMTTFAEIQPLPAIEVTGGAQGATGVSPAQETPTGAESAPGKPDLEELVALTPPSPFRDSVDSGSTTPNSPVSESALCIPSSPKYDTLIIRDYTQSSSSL
UniProt P41594, whole entry: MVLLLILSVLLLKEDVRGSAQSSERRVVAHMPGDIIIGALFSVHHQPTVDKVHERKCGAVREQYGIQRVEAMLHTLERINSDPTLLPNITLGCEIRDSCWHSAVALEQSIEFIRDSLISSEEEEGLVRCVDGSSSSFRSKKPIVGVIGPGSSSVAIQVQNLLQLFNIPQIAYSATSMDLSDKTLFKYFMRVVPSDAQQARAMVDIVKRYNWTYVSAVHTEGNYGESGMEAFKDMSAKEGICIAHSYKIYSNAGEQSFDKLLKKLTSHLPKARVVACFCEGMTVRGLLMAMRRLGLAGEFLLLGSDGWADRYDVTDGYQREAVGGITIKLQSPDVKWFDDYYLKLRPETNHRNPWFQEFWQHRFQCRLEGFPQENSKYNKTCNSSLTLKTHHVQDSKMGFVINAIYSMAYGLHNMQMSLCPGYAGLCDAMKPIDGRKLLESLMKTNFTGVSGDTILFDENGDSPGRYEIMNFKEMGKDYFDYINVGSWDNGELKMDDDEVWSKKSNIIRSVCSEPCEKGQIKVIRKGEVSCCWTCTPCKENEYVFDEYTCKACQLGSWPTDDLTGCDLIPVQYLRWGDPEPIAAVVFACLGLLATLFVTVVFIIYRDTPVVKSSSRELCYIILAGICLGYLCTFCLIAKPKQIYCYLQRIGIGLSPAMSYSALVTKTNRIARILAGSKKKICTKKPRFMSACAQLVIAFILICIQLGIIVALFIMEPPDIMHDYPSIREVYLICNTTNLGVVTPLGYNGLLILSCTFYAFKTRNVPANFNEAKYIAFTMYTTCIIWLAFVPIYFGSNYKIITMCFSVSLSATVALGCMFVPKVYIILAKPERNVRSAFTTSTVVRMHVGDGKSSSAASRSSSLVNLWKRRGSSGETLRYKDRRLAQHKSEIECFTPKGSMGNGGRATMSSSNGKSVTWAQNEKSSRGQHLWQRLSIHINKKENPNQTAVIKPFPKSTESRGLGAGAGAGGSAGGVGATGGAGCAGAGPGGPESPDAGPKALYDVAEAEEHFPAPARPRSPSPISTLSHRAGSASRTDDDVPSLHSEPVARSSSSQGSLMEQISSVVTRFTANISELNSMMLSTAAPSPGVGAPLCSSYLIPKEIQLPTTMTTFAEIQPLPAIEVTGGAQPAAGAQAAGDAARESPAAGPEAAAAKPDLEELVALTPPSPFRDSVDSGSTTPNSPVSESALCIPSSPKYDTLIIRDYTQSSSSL

[2] = biological target: Metabotropic glutamate receptor 5 (Homo sapiens, UniProt P41594); assay: Displacement of [3H]MPEP from cloned mGluR5 expressed in HEK293T cells by scintillation counting; type: cell-based, HEK-293T

IC50 [1] [nM] | Ki [2] [nM] | SMILES
3.54 | 13 | Cc1cccc(C#Cc2ccccc2)n1
1.21 | 5.49 | Cc1nc(C#Cc2ccc(-c3ccccc3)nc2)cs1
3.43 | 11.4 | Cc1nc(C#Cc2ccc(-c3cccnc3)c(F)c2)cs1
5.24 | 5.65 | Cc1nc(C#Cc2ccc(-c3cccnc3)nc2)cs1
25.3 | 22 | Cc1cccc(NC(=O)c2ccc(-c3cccc(F)c3)c(C#N)c2)n1
13.6 | – | Cc1nc(C#Cc2cccnc2)cs1
3.05 | 10.8 | Cc1nc(C#Cc2cccc(-c3ccccc3)c2)cs1

Source: ChEMBL document CHEMBL1136938, “Structure-activity relationships comparing N-(6-methylpyridin-yl)-substituted aryl amides to 2-methyl-6-(substituted-arylethynyl)pyridines or 2-methyl-4-(substituted-arylethynyl)thiazoles as novel metabotropic glutamate receptor subtype 5 antagonists” (J Med Chem, 2009)
